# System: migraine headache
Substance,"benefit as migraine prophylactic agent (Example 2 patient, history)","benefit as migraine prophylaxis (Example 5 patient, history)","effect on headache frequency (Example 1 patient, riboflavin 200 mg bid, magnesium oxide 500 mg tid and coenzyme Q10 100 mg bid together, after 4-6 weeks)"
magnesium,without benefit,partially helpful,
magnesium oxide,,,did not affect the frequency of their headaches

# — US20250387426A1 (priority 2024, published 2025)
